Experimental data: US20210046118A1

Molecular target: DR5 on the surface of target cancer cells (MM1.S, RPMI8226, K562) (human) (UniProt O14763)
Assay: cell-based or functional assay

| Substance | % killing of MM1.S cells pretreated with 2.5 nM Bortezomib (DR5 upregulated), co-culture 1:1 for 12 hours, flow cytometry | % killing of MM1.S cells, vehicle-treated, co-culture 1:1 for 12 hours, flow cytometry |
| --- | --- | --- |
| wildtype TRAIL expressed on KHYG-1 cells (from UniProt P50591 1-281) (ligand) | 51.4 % killing | 41.8 % killing |
| TRAIL variant (TRAIL D269H/E195R) expressed on KHYG-1 cells (from UniProt P50591 1-281) (ligand) | 70.5 % killing | 47.9 % killing |
